The values that follow come from PMC5378956, “Inhibition of delta-secretase improves cognitive functions in mouse models of Alzheimer's disease” (Nature Communications, 2017).

The test system of data set [1] is mice overexpressing tau 1-368. The note with it: mouse, in vivo.
Data set [2] can be described thus: Caco-2 monolayer permeability screen. The note with it: human.

The structures appear in SMILES notation.

For the molecule `Nc1ccc(N2CCOCC2)c2nonc12` [compound 11, 7-(morpholin-4-yl)-2,1,3-benzoxadiazol-4-amine], the PP2A activity result in the data set with tau P301S mice (10 mg kg−1 d−1 oral, 3 months) is given as “increased PP2A activity”. Further, the “synaptic density in CA1 (electron microscopy)” value in the data set with tau P301S mice (mouse, in vivo) is “significantly increased the density of synapses”. Further, the density of microglia entry in the data set with tau P301S mice (tau P301S mice) and with 5XFAD mice (5XFAD mice) was “decreased the density of microglia” each time. Further, in the data set with 5XFAD mice (mouse, in vivo), the “density of synapse (electron microscopy)” value was “notably increased the density of synapse”. Further, the “phosphorylation of tau, cognitive and synaptic function in tau 1–368 mice” value in data set [1] is listed as “did not affect”. The efflux ratio at 2 h, 10 µM in data set [2] stood at 0.2.
